Source: patent US11357829B2, “Systems, compositions and methods for treating diabetes” (Vanderbilt University, priority 2017, dated 2022)

Tested on: conscious subjects (canine)
Assay: IV pancreatic clamp, insulin-induced hypoglycemia, glucagon raised proportionally vs kept basal (subjects 1, 2, 5, 6)
Conditions: mean of 4 hypoglycemic subjects, glucagon increased proportionally (I/G 3-5)

increase in glucagon (plasma): approximately 180 pg/ml
SMILES: CSCC[C@H](NC(=O)[C@H](CC(C)C)NC(=O)[C@H](Cc1c[nH]c2ccccc12)NC(=O)[C@H](CCC(N)=O)NC(=O)[C@@H](NC(=O)[C@H](Cc1ccccc1)NC(=O)[C@H](CC(=O)O)NC(=O)[C@H](CCC(N)=O)NC(=O)[C@H](C)NC(=O)[C@H](CCCN=C(N)N)NC(=O)[C@H](CCCN=C(N)N)NC(=O)[C@H](CO)NC(=O)[C@H](CC(=O)O)NC(=O)[C@H](CC(C)C)NC(=O)[C@H](Cc1ccc(O)cc1)NC(=O)[C@H](CCCCN)NC(=O)[C@H](CO)NC(=O)[C@H](Cc1ccc(O)cc1)NC(=O)[C@H](CC(=O)O)NC(=O)[C@H](CO)NC(=O)[C@@H](NC(=O)[C@H](Cc1ccccc1)NC(=O)[C@@H](NC(=O)CNC(=O)[C@H](CCC(N)=O)NC(=O)[C@H](CO)NC(=O)[C@@H](N)Cc1c[nH]cn1)[C@@H](C)O)[C@@H](C)O)C(C)C)C(=O)N[C@@H](CC(N)=O)C(=O)N[C@H](C(=O)O)[C@@H](C)O [glucagon]
